Measured affinities in a library of Ab-95 light chain variants

Source: Engelhart et al. 2022 (doi:10.1038/s41597-022-01779-4), MIT Lincoln Laboratory and A-Alpha Bio; data file from the FLAb repository.

Target peptide (SARS-CoV-2 spike, HR2 region): PDVDLGDISGINAS

Parent: Ab-95, a human scFv built as VH, a 15-residue (Gly4Ser)3 linker, VL. Only the CDRs of the light chain vary.
VH: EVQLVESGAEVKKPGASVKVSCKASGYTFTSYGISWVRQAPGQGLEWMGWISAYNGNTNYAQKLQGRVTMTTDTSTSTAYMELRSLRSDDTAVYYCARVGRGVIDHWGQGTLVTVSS
VL: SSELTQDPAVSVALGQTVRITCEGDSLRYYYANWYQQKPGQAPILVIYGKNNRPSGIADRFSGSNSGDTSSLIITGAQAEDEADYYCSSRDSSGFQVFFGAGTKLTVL

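The starting antibody came from a phage panning campaign against this peptide. Library AAYL52 holds single substitutions and randomly drawn double and triple substitutions in the CDRs. The scFvs were displayed on barcoded MATa yeast, the peptide on MATalpha yeast. The frequency of each diploid, read from paired DNA barcodes, reflects how well the two displayed proteins bind. Each replicate has its own calibration line, from reference interactions of the BCL2 family. Mating was done three times.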

Substitutions are numbered in sequence along the VL above, starting at 1 (not Kabat). All variants listed here change P54 of the VL, counted from its first residue. Values are apparent Kd, the geometric mean of the replicates that gave a signal; lower means stronger binding. Where no diploid with the target was found in any replicate, the entry reads "not detected": below detection, most likely a poor binder, though not proof of it. Nonspecific signal, from three strains lacking the peptide, appeared in 28% of pairings of library AAYL52, centred on 8.2 µM (5% of these signals below 800 nM); values are not corrected for it. For each scFv, signals with the empty controls are counted beside the result.

changes	Kd (apparent)	detected	empty controls
R53F/P54D/S89E	not detected	0 of 3	1 of 9
L27E/P54C/S92N	260 µM	1 of 3	4 of 9
P54W/F95W	17 µM	2 of 3	4 of 9
N51Q/P54Q/S93T	600 nM	2 of 3	0 of 9
S26L/Y31Q/P54L	1.1 µM	2 of 3	5 of 9
D25W/P54A/S92T	470 nM	3 of 3	3 of 9
E23I/P54G/D91F	800 nM	3 of 3	2 of 9
L27H/K50I/P54A	10 µM	1 of 3	1 of 9
P54S/R90V/V97E	1.8 µM	2 of 3	0 of 9
Y30C/P54R/S55W	3.1 µM	2 of 3	3 of 9
N33K/K50M/P54E	26 µM	1 of 3	6 of 9
S26Y/P54E/S89H	1.5 µM	3 of 3	2 of 9
R28K/Y29L/P54M	1.9 µM	3 of 3	3 of 9
K50E/N51A/P54R	55 µM	2 of 3	1 of 9
P54W/S55Y/S93E	2.1 µM	2 of 3	0 of 9
P54C/Q96K/V97D	390 nM	1 of 3	0 of 9
G49D/P54D/G94H	23 µM	2 of 3	3 of 9
S26Q/R28V/P54K	960 nM	2 of 3	3 of 9
N51P/P54I	16 µM	3 of 3	5 of 9
Y29T/P54G/R90P	510 nM	2 of 3	1 of 9
E23Q/P54A/V97K	98 nM	3 of 3	5 of 9
S26M/P54E	200 nM	3 of 3	2 of 9
L27E/P54R/S93W	not detected	0 of 3	2 of 9
D25R/P54Y/F95S	340 nM	3 of 3	3 of 9
D25S/P54W/D91E	360 nM	2 of 3	2 of 9
Y31S/P54E/S88D	not detected	0 of 3	2 of 9
L27N/P54R/Q96G	500 µM	1 of 3	2 of 9
N33P/P54F/F98Y	18 µM	1 of 3	6 of 9
K50Y/P54A/S89V	1.7 µM	3 of 3	2 of 9
N33G/N52V/P54F	not detected	0 of 3	1 of 9
P54Q/S89G/G94H	7.9 µM	2 of 3	6 of 9
N33A/P54I/Q96P	not detected	0 of 3	4 of 9
N52L/P54S/D91S	330 nM	3 of 3	6 of 9
N52M/P54K/V97R	9.1 µM	3 of 3	3 of 9
G24W/P54R/Q96A	not detected	0 of 3	2 of 9
P54V/D91I	500 nM	3 of 3	2 of 9
G49W/P54E/S88K	not detected	0 of 3	2 of 9
A32C/R53A/P54E	1.1 µM	3 of 3	4 of 9
E23F/P54F/D91G	29 µM	1 of 3	1 of 9
N51W/P54F/F95G	290 µM	1 of 3	3 of 9
A32I/N33F/P54L	not detected	0 of 3	0 of 9
G24Q/S26G/P54A	27 nM	3 of 3	3 of 9
R53W/P54C/S55N	32 µM	1 of 3	2 of 9
S26V/N52S/P54L	1.6 µM	1 of 3	4 of 9
P54W/S93D/F95R	800 nM	3 of 3	3 of 9
Y29M/G49E/P54E	86 µM	2 of 3	4 of 9
K50Q/P54C/S88N	690 nM	3 of 3	2 of 9
G24I/P54H	230 nM	3 of 3	1 of 9
N51G/P54M/F98K	880 nM	3 of 3	3 of 9
N33E/N51E/P54M	13 µM	2 of 3	4 of 9
A32G/P54N/F95C	not detected	0 of 3	1 of 9
P54A/S93P/Q96L	380 nM	3 of 3	2 of 9
E23A/P54V/G94H	250 µM	2 of 3	3 of 9
N33I/P54T/S55T	3.3 µM	3 of 3	2 of 9

Picked from the list: the 5 lowest averages where every replicate gave a value.

changes	Kd (apparent)	detected	empty controls
G24Q/S26G/P54A	27 nM	3 of 3	3 of 9
E23Q/P54A/V97K	98 nM	3 of 3	5 of 9
S26M/P54E	200 nM	3 of 3	2 of 9
G24I/P54H	230 nM	3 of 3	1 of 9
N52L/P54S/D91S	330 nM	3 of 3	6 of 9

In this assay the parent's reference entry averaged 200 nM; its copy inside this library read 180 nM.